The values below come from ChEMBL document CHEMBL1156873, “Pyrazolopyrimidines as highly potent and selective, ATP-competitive inhibitors of the mammalian target of rapamycin (mTOR): optimization of the 1-substituent” (Bioorg Med Chem Lett, 2010).

Sequences of proteins named here, by UniProt entry; tags and fusion partners are left off.
UniProt P42336, whole entry: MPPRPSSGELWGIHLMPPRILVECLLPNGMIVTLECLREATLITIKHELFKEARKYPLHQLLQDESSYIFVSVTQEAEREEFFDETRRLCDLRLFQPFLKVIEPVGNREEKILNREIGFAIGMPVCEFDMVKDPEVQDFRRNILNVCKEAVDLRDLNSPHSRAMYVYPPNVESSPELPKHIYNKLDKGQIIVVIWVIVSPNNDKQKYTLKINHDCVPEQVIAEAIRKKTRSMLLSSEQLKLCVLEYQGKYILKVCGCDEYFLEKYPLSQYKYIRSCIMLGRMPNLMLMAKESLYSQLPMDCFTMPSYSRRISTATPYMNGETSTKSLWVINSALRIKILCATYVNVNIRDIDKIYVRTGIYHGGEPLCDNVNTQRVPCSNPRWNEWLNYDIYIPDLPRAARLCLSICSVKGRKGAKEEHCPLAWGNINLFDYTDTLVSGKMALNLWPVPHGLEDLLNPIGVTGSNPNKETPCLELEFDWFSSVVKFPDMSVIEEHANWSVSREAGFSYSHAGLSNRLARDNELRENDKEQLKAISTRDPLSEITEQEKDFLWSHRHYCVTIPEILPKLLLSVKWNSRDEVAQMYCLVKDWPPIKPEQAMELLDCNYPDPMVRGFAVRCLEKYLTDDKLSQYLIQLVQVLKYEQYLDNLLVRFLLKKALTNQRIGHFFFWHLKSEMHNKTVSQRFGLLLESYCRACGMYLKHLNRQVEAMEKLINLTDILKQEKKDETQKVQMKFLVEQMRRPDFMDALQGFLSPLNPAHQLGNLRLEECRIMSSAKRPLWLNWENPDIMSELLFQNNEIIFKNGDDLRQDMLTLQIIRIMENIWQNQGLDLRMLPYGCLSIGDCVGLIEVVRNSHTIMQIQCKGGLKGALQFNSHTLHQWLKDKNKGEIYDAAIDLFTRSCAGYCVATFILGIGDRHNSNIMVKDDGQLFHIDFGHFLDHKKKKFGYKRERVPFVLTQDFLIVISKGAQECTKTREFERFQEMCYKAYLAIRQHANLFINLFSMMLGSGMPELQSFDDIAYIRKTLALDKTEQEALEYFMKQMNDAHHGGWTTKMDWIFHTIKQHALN

In general, pIC50 refers to −log10 of the IC50, conventionally taken in molar units. Higher therefore signals a low IC50.

pIC50: −log10 of the molar value.

The target in the assay is Phosphatidylinositol 4,5-bisphosphate 3-kinase catalytic subunit alpha isoform (Homo sapiens, UniProt P42336). In words: Inhibition of PI3Kalpha.

In turn, `CNC(=O)Nc1ccc(-c2nc(N3CC4CCC(C3)O4)c3cnn(C4CCC5(CC4)OCCCO5)c3n2)cc1` gave a negative logarithm of the IC50 (pIC50) of 6.52.
